According to PubChem BioAssay AID1645870 (National Center for Advancing Translational Sciences (NCATS), 2021):
Only a part is listed here, and it is no random draw. Records with an inconclusive call do not appear. Some salts or complexes appear as unconnected parts, following the source record. Activity calls are given as the source filed them. The call rests on the fitted dose curve; in most records, active means well fitted inhibition curve with a large enough effect; inconclusive means small, poorly fitted or top-dose-only effect; inactive means flat fitted curve, though single readings scatter.

By UniProt entry, the sequences of proteins in these tests, tags left out.
UniProt Q9BV86, whole entry: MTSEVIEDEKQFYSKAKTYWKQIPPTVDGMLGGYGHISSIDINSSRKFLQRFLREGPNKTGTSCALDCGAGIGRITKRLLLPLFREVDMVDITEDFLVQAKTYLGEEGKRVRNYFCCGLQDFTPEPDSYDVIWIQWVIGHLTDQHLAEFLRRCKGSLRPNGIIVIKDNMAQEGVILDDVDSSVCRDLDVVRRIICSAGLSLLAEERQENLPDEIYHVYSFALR

These compounds were tested against N-terminal Xaa-Pro-Lys N-methyltransferase 1 (Homo sapiens) (UniProt Q9BV86) (assay: Primary qHTS for Inhibitors of N-terminal methyltransferase 1 (NTMT1): MTaseGlo Assay). Conditions: NTMT1 MTase-Glo SAH luminescence, purified enzyme; at 57.5 µM (top of the series) unless noted.
Source text: Assay Submitter (PI): Rong Huang Ph.D.
Purdue University, West Lafayette, IN 47907
The N-terminal methytransferase 1 is the first methyltransferase that methylates protein alpha-N-amines and plays an important role in regulating cell mitosis, chromatin interactions and DNA repair. It is observed to be over-expressed in various cancer patient tissues like malignant melanoma and colorectal cancer tissues. Knockdown of NTMT1 in cancer cells causes cell mitotic defects and enhances sensitivity to DNA damaging chemotherapeutics. […] These critical cellular processes in which NTMT1 is implicated, coupled with emerging links to cellular dysfunction, strengthen the inference that NTMT1 is a compelling novel anticancer target. Progress have been made in understanding the molecular properties of NTMT1 and the biological consequences of protein alpha-N-terminal methylation, but there are no specific small molecule probes available for NTMT1 to fully characterize its MTase activity. To address this unmet need, a panel of assay is created and established to enable quantitative high-throughput screening (qHTS) for novel, potent, and selective small molecule NTMT1 inhibitors. Two orthogonal qHTS that use different reagents (ThioGlo vs. MTaseGlo) are developed for primary robotic screening against the NCATS chemical library of more than 400,000 small molecules. Identified inhibitors are reacquired, validated, and further characterized.
MTaseGlo Assay is a luminescence screen that measure the activity of methyltransferases based on the reaction product S-adenosyl homocysteine (SAH). The substrate SAM is converted to SAH upon enzyme activation. MTase-Glo reagent and detection solution convert SAH to ATP and measure the light from the luciferase reaction.
Materials: NTMT1 enzyme, substrate SPKRIA, control peptide RCC1-6 is provided by the Huang laboratory.
SEQUENCE No. (e.g., 1, 2, 3, etc.); […] (e.g., Cells, Incubation, Reagent, etc.); VALUE; DESCRIPTION
1; Enzyme; 3 uL; Dispense enzyme mixture (final concentrations of 125 nM NTMT1 and 100 uM SAM) into Greiner 1536-well white / solid bottom assay plate (Greiner Bio One, Monroe, NC).
2; Compounds; 23 nL; Compounds and controls were transferred via a Kalypsys Pin Tool (Wako USA) equipped with a 1536-slotted pin array (Wako Automation, Richmond, VA)
3; Incubation; 15 min; Incubate at room temperature
4; Substrate; 1 uL; Dispense 1 uL of substrate at final concentration of 1 uM. Buffer solution was dispensed in control wells. The assay plate was covered with metal lids.
5; Incubation; 30 min; Incubate at room temperature, protected from lights.
6; Reagent; 1 uL; Dispensed 5x MTase-Glo detection reagent (R) into the assay plate. The plate was covered with metal lids.
7; Incubation; 30 min; Incubate the assay plates at room temperature in the dark to allow for SAH to be converted to ADP.
8; Reagent; 5 uL; Dispense 5 uL of 1x MTase-Glo Detection Solution (R) to allow for ADP to be converted to ATP which was then detected with a luciferase reaction.
9; Centrifuge; 15 sec; Centrifuge the assay plate for 15 seconds at 1000 RPM.
10; Incubation; 30 min; Assay plates were incubation at room temperature in the dark.
11; Detection; Luminescence; Plates were read on ViewLux detector (PerkinElmer). Data were normalized to no-enzyme (0% activity) and no-inhibitor (DMSO; 100%) controls, and the resulting percent inhibition data were fitted to a 4-parameter Hill equation using GraphPad Prism.
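Further: plate controls were DMSO vehicle for no effect and no enzyme for full effect; nearly all actives have a fitted effect of over 65% in size.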

For `O=[N+]([O-])c1cccc([N+](=O)[O-])c1`, which activity change, negative = inhibition is on record?
Its activity change, negative = inhibition is inactive: 19.2% [at 114 µM].

Which activity change, negative = inhibition does the source give for `C/C1=C2N=C(/C=C3N=C(/C(C)=C4\N=C(C(CC(N)=O)C4(C)CCC(=O)NCC(C)OP(=O)([O-])OC4C(CO)OC(n5cnc6cc(C)c(C)cc65)C4O)C4(C)N=C1C(CCC(N)=O)C4(C)CC(N)=O)C(CCC(N)=O)C\3(C)C)C(CCC(N)=O)C/2(C)CC(N)=O.[C-]#N.[Co]` (stereo not given) here?
Its activity change, negative = inhibition is inactive: 0.156% [at 29.8 µM].

Which activity change, negative = inhibition does the source give for `OCCSCCO` here?
The activity change, negative = inhibition was inactive: 26.1%.

Which activity change, negative = inhibition does the source give for `Cc1cccc([N+](=O)[O-])c1[N+](=O)[O-]` here?
The activity change, negative = inhibition was inactive: 5.76% [at 114 µM].

`CCOP(=O)(CC)Oc1ccc([N+](=O)[O-])cc1` (stereo not given) was tested. Which activity change, negative = inhibition did it give?
Its activity change, negative = inhibition is inactive: 2.5%.
